Test results from patent US8618101B2.

The chains behind the UniProt entries cited, without tags or fusion partners.
UniProt Q12809, whole entry: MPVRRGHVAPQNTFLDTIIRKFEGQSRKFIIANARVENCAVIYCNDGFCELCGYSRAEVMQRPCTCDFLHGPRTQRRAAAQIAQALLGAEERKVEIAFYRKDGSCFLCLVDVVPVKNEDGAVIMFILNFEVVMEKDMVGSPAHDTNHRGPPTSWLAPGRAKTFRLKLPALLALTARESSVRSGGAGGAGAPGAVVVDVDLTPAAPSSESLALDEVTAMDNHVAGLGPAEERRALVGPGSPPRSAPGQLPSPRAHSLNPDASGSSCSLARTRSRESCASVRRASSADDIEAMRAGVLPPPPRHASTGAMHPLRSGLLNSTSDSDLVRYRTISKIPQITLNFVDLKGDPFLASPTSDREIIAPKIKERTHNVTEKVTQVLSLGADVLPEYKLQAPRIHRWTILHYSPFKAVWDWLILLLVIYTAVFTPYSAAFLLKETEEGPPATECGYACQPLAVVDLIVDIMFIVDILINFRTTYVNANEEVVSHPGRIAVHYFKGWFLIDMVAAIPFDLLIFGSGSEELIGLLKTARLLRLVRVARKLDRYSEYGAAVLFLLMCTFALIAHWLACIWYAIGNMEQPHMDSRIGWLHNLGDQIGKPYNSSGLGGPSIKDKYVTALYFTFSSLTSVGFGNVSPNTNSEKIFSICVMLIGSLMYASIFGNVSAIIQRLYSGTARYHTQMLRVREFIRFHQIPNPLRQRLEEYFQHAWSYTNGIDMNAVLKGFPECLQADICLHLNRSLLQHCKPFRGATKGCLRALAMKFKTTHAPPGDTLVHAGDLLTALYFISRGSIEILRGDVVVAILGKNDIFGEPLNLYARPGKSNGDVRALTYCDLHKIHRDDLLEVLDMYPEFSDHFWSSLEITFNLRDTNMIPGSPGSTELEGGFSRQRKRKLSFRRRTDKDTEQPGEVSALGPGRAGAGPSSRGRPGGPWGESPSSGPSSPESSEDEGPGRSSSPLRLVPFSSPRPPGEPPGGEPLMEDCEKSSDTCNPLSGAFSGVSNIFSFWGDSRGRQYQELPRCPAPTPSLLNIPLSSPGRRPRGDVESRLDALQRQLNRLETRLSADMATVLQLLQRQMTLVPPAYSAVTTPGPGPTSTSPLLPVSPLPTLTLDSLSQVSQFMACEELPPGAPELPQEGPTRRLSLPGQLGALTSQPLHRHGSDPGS
UniProt P41597, whole entry: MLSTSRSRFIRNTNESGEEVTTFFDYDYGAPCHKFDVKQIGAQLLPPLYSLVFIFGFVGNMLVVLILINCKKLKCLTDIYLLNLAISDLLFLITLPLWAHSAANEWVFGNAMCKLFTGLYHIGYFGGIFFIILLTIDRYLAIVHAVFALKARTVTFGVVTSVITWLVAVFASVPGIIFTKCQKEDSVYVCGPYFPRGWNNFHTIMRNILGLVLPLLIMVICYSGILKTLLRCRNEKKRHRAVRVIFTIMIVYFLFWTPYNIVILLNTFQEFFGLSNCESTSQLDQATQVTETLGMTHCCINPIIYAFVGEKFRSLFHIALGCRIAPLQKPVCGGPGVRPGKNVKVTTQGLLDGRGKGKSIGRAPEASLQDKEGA
UniProt P51681, whole entry: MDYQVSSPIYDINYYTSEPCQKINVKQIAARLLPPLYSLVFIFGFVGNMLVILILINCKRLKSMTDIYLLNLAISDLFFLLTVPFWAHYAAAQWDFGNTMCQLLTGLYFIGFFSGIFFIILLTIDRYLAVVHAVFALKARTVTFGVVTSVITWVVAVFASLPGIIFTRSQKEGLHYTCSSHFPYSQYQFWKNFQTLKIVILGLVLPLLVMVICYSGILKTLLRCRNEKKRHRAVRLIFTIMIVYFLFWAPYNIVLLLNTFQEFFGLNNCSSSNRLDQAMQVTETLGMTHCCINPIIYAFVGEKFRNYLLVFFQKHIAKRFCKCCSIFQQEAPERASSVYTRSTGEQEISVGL

Columns and labels:
[1] = Single-dose pharmacokinetics in monkeys; assay type: in vivo, cynomolgus monkey; conditions: monkey
[2] = Single-dose pharmacokinetics in rats; conditions: rat
[3] = molecular target: hERG (Homo sapiens, UniProt Q12809); test: hERG Flux (Tl+ flux, FLIPR); assay type: cell-based; conditions: read-out: hERG FLUX IC50; HEK293 cells expressing hERG
[4] = molecular target: CCR-2 (Homo sapiens, UniProt P41597); test: CCR-2 whole blood integrin (CD11b) upregulation; assay type: cell-based; conditions: comparison of CCR-2 and CCR-5 CD11b IC50
[5] = molecular target: T1, CCR-5 (Homo sapiens, UniProt P51681); test: CCR-5 calcium mobilization, HT1080/CCR-5 cells; assay type: cell-based; conditions: read-out: CCR-5 ^2+ Flux IC50, MIP-1β 50 nM
[6] = molecular target: T1, CCR-5; test: CCR-5 GTP-γS exchange, CCR-5/HT1080 membranes; assay type: biochemical; conditions: read-out: CCR-5 GTP-γS IC50; MIP-1α/LD78β ligand
[7] = dose IV/PO 1/11 mg/kg, tested form: TFA
[8] = dose IV/PO 6/72 mg/kg, tested form: TFA

With `CCC[C@@H]1C[C@H](N(C)C(C)C)CC[C@@H]1N1CC[C@H](Nc2ncnc3ccc(C(F)(F)F)cc23)C1=O` the “Oral AUC” value ([1]; dose IV/PO 1/[…]) was 0.862 µM·h, the “Cl” value ([2]; dose IV/PO 2.5/25 mg/kg) was 40 mL/min/kg and the “Oral AUC” value ([2]; dose IV/PO 2.5/25 mg/kg) was 9.294 µM·h.
With `CC(C)N(C)[C@@H]1CC[C@H](N2CC[C@H](NC(=O)c3cccc(C(F)(F)F)c3)C2=O)[C@H](CS(C)(=O)=O)C1` the F % [1, 7] was 9.4%, the “Oral AUC” value [1, 7] was 1.896 µM·h and the F % [2, 8] was 1.4%. For the same compound, the “Oral AUC” value [2, 8] was 0.69 µM·h.
With `CC(=O)N[C@@H]1C[C@H](NC(C)(C)C)CC[C@@H]1N1CC[C@H](Nc2ncnc3ccc(C(F)(F)F)cc23)C1=O` the IC50 [3] was > 80000 nM, the “activity against CCR-2 versus CCR-5 (Table 5)” value [4] was “predominantly active against CCR-2” and the “Oral AUC” value ([2]; dose IV/PO 2/10 mg/kg) was 10.169 µM·h.
For `CC(=O)N[C@@H]1C[C@H](N(C)C(C)C)CC[C@@H]1N1CC[C@H](Nc2ncnc3ccc(C(F)(F)F)cc23)C1=O`, the “Oral AUC” value ([1]; dose IV/PO 1/1.3 mg/kg) was 0.836 µM·h, the “activity against CCR-2 versus CCR-5 (Table 5)” value [4] was “predominantly active against CCR-2” and the IC50 [5] was 24 nM. The “Oral AUC” value ([2]; dose IV/PO 2/10 mg/kg) was 3.794 µM·h and the IC50 [6] was 111 nM.
With `CC(C)N(C)[C@@H]1CC[C@H](N2CC[C@H](NC(=O)c3cccc(C(F)(F)F)c3)C2=O)[C@H](CS(=O)(=O)C(C)(C)C)C1` the “Oral AUC” value ([1]; dose IV/PO 1/10 mg/kg, tested form: TFA) was 6.763 µM·h and the “Oral AUC” value ([2]; dose IV/PO 4/43 mg/kg, tested form: TFA) was 1.855 µM·h.
